Values of other authors as cited in publication PMC10029980 (Journal of medicinal chemistry, 2022).

Conditions: cited from earlier work

CC(C)NC(=O)N1CC[C@H](NC2=Nc3cc(F)ccc3N(CC(F)F)c3ccc(Cl)cc32)C1 [NVS-PAK1-1]
half-life in rat liver microsomes: short half-life
